Columns and labels:
[1] = test system: H9 human embryonic stem cells (hESCs); experiment: qPCR analysis of neural and retinal gene expression during hPSC neural/retina differentiation; assay type: cell-based
Protocol: hPSCs (H9, IMR-90-4 and WC30) were maintained under E8/feeder-free culture condition and passaged at 1:20 ratio with Rock inhibitor. After each new passage, the cells were fed with E8 medium for another 1˜2 days to reach 30-40% confluence. To initiate retina differentiation, culture medium was replaced with Retina Induction Medium (RIM) containing Neural induction medium (NIM) comprising DMEM/F12 media containing 1% N2 and 1× nonessential amino acids (NEAA) supplemented with 10 μM SB431542 (TGF inhibitor, Stemgent, 04-0010-10); this new passage day was counted as day 0 (DO) of retina differentiation. Cells were then fed daily with RIM, or every other day based on the cell density. On day 4, the cells were dissociated by ReLeSR (STEM CELL) or EDTA and re-suspended in the fresh RIM containing 0.5 micromolar (μM) Rock inhibitor. Cell clusters were thereafter transferred to a cell culture flask and cultured in suspension. On day 5, the resulting cell spheres were fed with RIM without SB431542. On day 6, the cell spheres were fed with Retina Specification Medium (RSM) containing NIM supplemented with 10 ng/ml BMP2 (R&D SYSTEMS, 355-BM) every other day till day 20. Typical optical cup structures can be observed as early as day 15; BMP2 can be replaced by BMP4 or BMP7. At day 20, the spheres were cultured in Transition medium (DMEM/F12: Neurobasal (1:1) with 1% N2, 2% B27, 1×NEAA and 1×Glutamax) until analysis.
Total RNA was isolated with the RNeasy Plus Mini Kit according to the manufacturer's instructions. For quantitative PCR (qPCR), cDNA was synthesized using PrimeScript RT Reagent Kit (Takara). qPCR was performed using iTaq Universal SYBR Green Supermix (Bio-Rad). GAPDH gene was used as an internal control to equalize cDNA.
In order to understand whether activation of the BMP pathway was required for switching the neuro/ectoderm to their retinal fate (because inhibition of TFG-beta, BMP, and/or WNT promotes neuroectoderm specification from hPSCs), the next step was to find how regulation of these pathways affected retinal specification. H9 human embryonic stem cells (hESCs) were differentiated to neuroepithelia by culture in chemically defined media as disclosed above and then treated with inhibitors against BMP (DMH1), TGF-beta (SB-431542, SB), or WNT (IWR1) pathways separately for 6 days during the neural induction process (FIG. 2a).
Due to the lack of retinal differentiation resulting from BMP inhibition, expression of retina genes was examined at multiple time points in SB and SB plus dorsomorphin homolog 1 (SB+DMH1), which was a well-established dual-SMAD inhibition condition for neural conversion (Chambers, S. M. et al., 2009, Nat Biotechnol 27:275-280). […] Because SOX1 expression was known to be absent in retinal progenitors (also shown in FIG. 7a), expression of SOX2 and SOX1 presented a simple determining marker for cortical vs. retinal progenitors. Over 80% of the differentiating cells were SOX1 and SOX2 double positive cells (definitive for neuroepithelial cells) under dual-SMAD inhibition conditions at day 12 while only 14% of cells in the SB condition were positive for expression of both these genes (FIG. 8a).
The finding that BMP inhibition blocked EFTF expression raised the question of whether BMP was sufficient for retinal differentiation. To determine whether this was the case, cells were treated with BMP2 (2 ng/ml) on day 6 and collected on day 12 (FIG. 3a). […] Correspondingly, expression of retinal lineage genes PAX6, SIX6 and VSX2 was increased (FIG. 11a).
Next, these cells were treated for 4 days with BMP2 starting from day 4, 5, 6 or 7 and retinal gene expression examined at day 12 to determine whether BMP specified retinal fate. […] Thereafter, e.g., at day 7, enhancement of retinal gene expression by BMP2 diminished (FIG. 11b). Thus, induction of retinal fate by BMP occurred at the primitive neuroepithelial stage when these cells were negative for SOX1. […]

hPSCs = experiment: Single nucleus RNA-seq (snRNA-Seq) profiling of differentiating cells; assay type: cell-based, human
Protocol: Differentiating cells at multiple time points (day 0-day 12) indicated below were digested and collected for nucleus isolation and library construction (Tao et al., 2024, Nat. Biotech. 12:1404-1416; https://doi.org/10.1038/s41587-023-01977-4). All libraries prepared in this way were processed by NovaSeq. Alignment of raw sequencing reads, and generation of feature barcode matrices were performed using Cellranger (7.1.0). Seurat (4.1.3) was used to process feature barcode matrices and analyze snRNA-Seq data32. All samples were processed under standard quality control metrics. Single cells with more than 300 unique genes (nFeature) and less than 15% or 20% mitochondrial gene reads (percent.mt) were selected for follow-up analysis. Additional procedures were used to exclude low quality cells and doublets in each sample (nFeature<6,000 and nCount<20,000). In day 30 retina organoid samples, retinoic acid (RA) was used to accelerate retinogenesis from day 20. Early exposure to RA can caudalize progenitors towards the spinal cord region of the neural tube. Cells were filtered by removing HOXB3- and HOXB4-expressing cells to exclude possible caudalized cells in this sample. After quality control, all snRNA-Seq data were normalized using the SCTransform (v2) function in Seurat with mitochondria genes regressed out (Choudhary, S. et al., 2022, Genome Biol 23, 27). PCA and UMAP reduction, gene feature plots were done by using Seurat as well.
Regulation of retinal differentiation by the BMP pathway was also assessed. Single nucleus RNA-seq (snRNA-Seq) assays were performed to profile and compare the differentiating cells under the SB or SB+DMH1 conditions (FIG. 2d). On day 6, after filtering low quality and dead cells, 8,533 and 9,756 cells in the SB and SB+DMH1 groups were collected, respectively. Uniform manifold approximation and projection (UMAP) clustering identified 11 clusters in both conditions (FIG. 2e). Cell composition in the differentiating cells was very similar among these clusters except cluster neuroepithelial 2 (NE2) and 7 (NE7) (FIGS. 2f-2g). The percentage of cells from different conditions in other clusters was roughly equal to their ratios in the total cells. Cells in most of the clusters expressed neural progenitor makers such as SOX2, NES, MKI67 and GLI3 and EFTFs such as PAX6, RAX, LHX2, SIX3 and OTX2 (FIG. 2g), but not SIX6 in either condition at this time point. […] Among all these clusters, very few differentially expressed genes (DEGs) were identified between the two conditions (FIGS. 9b-9c).
To verify this observation, cells were differentiated with only SB for the first 6 days to generate primitive neuroepithelial cells and then how the BMP pathway regulated retinal differentiation was investigated by treating the cells with or without DMH1 at day 6 (FIG. 2d). Cell nuclei were collected on day 12 for snRNA-Seq to compare differentiating cells in the control (medium without inhibitors) and under DMH1 conditions. After quality control, 12,048 and 27,280 high quality cells were collected from cultured treated under each of these culture conditions, respectively, for snRNA-Seq analysis (results shown in FIGS. 2h-2i). UMAP clustering identified 13 clusters (FIGS. 2h-2j, FIG. 10a). Most of these clusters expressed SOX2, NES, GLI3 and SIX3. […] Ratios of cells from each condition in most clusters were close to their ratios in the total cells except in cluster neural progenitor 6 (NP6), 11 (NP11) and 12 (NP12). […]

H9 ESC line = experiment: Immunostaining of VSX2, PAX6, CRX and OPSIN in retina progenitors/organoids; assay type: cell-based, human; conditions: day 20 of differentiation, 10 ng/ml BMP2; FIG. 11d
[2] = BMP2 2 ng/ml on day 6, collected day 12, FIG. 3b
[3] = BMP2 for 4 days starting at day 4, examined at day 12, FIG. 3d

B1: BMP2: bone morphogenic protein variant species; BMP activator (R&D SYSTEMS, 355-BM) (protein, UniProt P12643 283-396, looked up)
Bone morphogenetic protein 2: QAKHKQRKRLKSSCKRHPLYVDFSDVGWNDWIVAPPGYHAFYCHGECPFPLADHLNSTNHAIVQTLVNSVNSKIPKACCVPTELSAISMLYLDENEKVVLKNYQDMVVEGCGCR
With B1 the “expression of definitive neuroepithelial marker SOX1” value [1, 2] was “repressing”, the “expression of retinal lineage genes VSX2, RAX, SIX6 and PAX6” value [1, 2] was “strongly enhanced” and the “expression of the definitive neuroepithelial marker SOX1” value ([1]; BMP2 10 ng/ml, FIG. 3e) was “reducing expression”. The “VSX2 and PAX6 expression” value ([1]; BMP2 10 ng/ml, FIG. 3e, FIG. 11c) was “maximum levels”, the “dose effect on VSX2 and PAX6 expression levels” value ([1]; BMP2 doses, FIG. 3e, FIG. 11c) was “increased with higher doses” and the “expression levels of retinal lineage genes VSX2, PAX6, RAX and SIX6” value ([1]; BMP2 for 4 days starting at around day 5-6, examined at day 12, FIG. 11b) was “peaked”. The SOX1 expression [1, 3] was “low expression levels”, the VSX2 expression [1, 3] was “low expression levels” and the “enhancement of retinal gene expression” value ([1]; BMP2 for 4 days starting at day 7, examined at day 12, FIG. 11b) was “diminished”. For the same molecule, the “expression pattern of SOX1 over time” value ([1]; time course after day 6, SB condition vs BMP2 administration, FIG. 3c) was “completely blocked”, the “expression of retina specific marker SIX6” value (hPSCs; day 12, BMP2 10 ng/ml after SB, not observed in control or DMH1 condition) was “began to express in a few clusters” and the “ID1/2/3/4 expression (activation of BMP pathway)” value (hPSCs; day 12, BMP2 10 ng/ml vs Control) was “upregulation”. The “retina lineage genes SFRP2, PAX6, DALP1, MITF (DEGs)” value (hPSCs; day 12, BMP vs Control condition, FIG. 13a) was “up regulated”, the “PAX6, RAX, SIX3, OTX2, MITF and SIX6 at the subpopulation levels” value (hPSCs; day 12, BMP vs Control in each cluster, FIG. 5g) was “up-regulation” and the “optic vesicle markers VSX2 and MITF” value (hPSCs; day 12, compared to the Control and DMH1 conditions, FIG. 13b) was “upregulated”. The “VSX2 and PAX6 expression by immunostaining” value (H9 ESC line) was “enriched”.

— patent publication US20250145946A1, “GENERATION OF PURE RETINAL CELLS FROM HUMAN PLURIPOTENT STEM CELLS” (Wisconsin Alumni Research Foundation, priority 2023, published 2025)
